From ChEMBL document CHEMBL4007384, “Synthesis and optimization of furano[3,2-d]pyrimidines as selective spleen tyrosine kinase (Syk) inhibitors” (Bioorg Med Chem Lett, 2016)

Sequences of proteins named here, by UniProt entry; tags and fusion partners are left off. A change or cut given only in a name is not applied to a line headed by its entry.
UniProt Q04759: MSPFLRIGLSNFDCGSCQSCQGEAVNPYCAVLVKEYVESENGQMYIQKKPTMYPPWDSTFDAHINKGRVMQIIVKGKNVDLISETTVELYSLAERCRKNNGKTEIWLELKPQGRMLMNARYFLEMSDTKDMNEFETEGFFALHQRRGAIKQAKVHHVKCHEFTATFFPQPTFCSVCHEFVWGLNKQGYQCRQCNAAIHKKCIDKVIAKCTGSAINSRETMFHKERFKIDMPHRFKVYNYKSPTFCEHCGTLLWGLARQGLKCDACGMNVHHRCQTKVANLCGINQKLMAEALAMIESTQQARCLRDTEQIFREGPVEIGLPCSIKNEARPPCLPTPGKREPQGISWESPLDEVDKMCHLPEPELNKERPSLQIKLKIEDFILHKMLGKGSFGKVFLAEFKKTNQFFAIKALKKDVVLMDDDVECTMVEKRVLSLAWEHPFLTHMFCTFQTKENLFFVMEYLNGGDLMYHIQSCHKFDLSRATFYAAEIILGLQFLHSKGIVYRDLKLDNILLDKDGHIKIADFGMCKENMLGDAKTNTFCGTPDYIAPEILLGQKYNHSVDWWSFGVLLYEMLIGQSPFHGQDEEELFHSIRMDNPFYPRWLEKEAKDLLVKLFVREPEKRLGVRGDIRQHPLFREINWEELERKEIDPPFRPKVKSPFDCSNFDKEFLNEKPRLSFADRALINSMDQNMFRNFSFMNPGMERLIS
UniProt P48729: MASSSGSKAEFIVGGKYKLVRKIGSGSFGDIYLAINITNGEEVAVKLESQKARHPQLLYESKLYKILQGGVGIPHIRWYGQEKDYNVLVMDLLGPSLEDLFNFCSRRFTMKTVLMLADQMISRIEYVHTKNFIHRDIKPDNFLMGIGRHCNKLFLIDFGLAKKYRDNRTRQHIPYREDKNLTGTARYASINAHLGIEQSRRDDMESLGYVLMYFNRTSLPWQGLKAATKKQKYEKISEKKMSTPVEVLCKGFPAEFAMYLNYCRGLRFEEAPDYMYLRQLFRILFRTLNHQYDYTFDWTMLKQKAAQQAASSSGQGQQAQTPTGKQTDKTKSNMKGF
UniProt P06241, whole entry: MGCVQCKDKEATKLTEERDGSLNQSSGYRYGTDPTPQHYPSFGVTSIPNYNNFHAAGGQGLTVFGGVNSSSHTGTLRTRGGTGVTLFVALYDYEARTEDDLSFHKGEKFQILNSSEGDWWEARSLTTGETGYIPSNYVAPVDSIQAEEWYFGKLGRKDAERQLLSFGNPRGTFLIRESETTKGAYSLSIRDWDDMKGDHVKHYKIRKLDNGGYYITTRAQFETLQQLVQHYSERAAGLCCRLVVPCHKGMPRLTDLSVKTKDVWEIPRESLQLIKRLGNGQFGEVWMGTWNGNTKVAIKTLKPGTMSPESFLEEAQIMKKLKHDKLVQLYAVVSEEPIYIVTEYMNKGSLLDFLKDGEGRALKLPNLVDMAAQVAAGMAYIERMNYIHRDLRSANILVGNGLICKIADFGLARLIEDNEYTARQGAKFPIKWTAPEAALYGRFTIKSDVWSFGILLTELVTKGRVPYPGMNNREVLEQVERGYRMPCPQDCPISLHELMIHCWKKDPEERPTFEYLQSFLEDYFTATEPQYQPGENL

What was measured:
[1] = molecular target: Protein kinase C theta type (Homo sapiens, UniProt Q04759); assay: Inhibition of PKCtheta (unknown origin) after 60 mins by TR-FRET assay
[2] = molecular target: Casein kinase I isoform alpha (Homo sapiens, UniProt P48729); assay: Inhibition of CK1alpha1 (unknown origin) after 60 mins by TR-FRET assay
[3] = molecular target: Tyrosine-protein kinase Fyn (Homo sapiens, UniProt P06241); assay: Inhibition of Fyn (unknown origin) after 60 mins by TR-FRET assay

IC50 [1]: > 10 µM | IC50 [2]: 5.22 µM | IC50 [3]: 5.33 µM
Compound: FC(F)(F)CNc1nc(Nc2ccc3cn[nH]c3c2)nc2ccoc12
